Results as given in ChEMBL document CHEMBL1135040, “[(3)H]-M-MPEP, a potent, subtype-selective radioligand for the metabotropic glutamate receptor subtype 5” (Bioorg Med Chem Lett, 2002).

Protein sequences, listed by entry. Tags and fused reporters are not part of them.
UniProt P41594, whole entry: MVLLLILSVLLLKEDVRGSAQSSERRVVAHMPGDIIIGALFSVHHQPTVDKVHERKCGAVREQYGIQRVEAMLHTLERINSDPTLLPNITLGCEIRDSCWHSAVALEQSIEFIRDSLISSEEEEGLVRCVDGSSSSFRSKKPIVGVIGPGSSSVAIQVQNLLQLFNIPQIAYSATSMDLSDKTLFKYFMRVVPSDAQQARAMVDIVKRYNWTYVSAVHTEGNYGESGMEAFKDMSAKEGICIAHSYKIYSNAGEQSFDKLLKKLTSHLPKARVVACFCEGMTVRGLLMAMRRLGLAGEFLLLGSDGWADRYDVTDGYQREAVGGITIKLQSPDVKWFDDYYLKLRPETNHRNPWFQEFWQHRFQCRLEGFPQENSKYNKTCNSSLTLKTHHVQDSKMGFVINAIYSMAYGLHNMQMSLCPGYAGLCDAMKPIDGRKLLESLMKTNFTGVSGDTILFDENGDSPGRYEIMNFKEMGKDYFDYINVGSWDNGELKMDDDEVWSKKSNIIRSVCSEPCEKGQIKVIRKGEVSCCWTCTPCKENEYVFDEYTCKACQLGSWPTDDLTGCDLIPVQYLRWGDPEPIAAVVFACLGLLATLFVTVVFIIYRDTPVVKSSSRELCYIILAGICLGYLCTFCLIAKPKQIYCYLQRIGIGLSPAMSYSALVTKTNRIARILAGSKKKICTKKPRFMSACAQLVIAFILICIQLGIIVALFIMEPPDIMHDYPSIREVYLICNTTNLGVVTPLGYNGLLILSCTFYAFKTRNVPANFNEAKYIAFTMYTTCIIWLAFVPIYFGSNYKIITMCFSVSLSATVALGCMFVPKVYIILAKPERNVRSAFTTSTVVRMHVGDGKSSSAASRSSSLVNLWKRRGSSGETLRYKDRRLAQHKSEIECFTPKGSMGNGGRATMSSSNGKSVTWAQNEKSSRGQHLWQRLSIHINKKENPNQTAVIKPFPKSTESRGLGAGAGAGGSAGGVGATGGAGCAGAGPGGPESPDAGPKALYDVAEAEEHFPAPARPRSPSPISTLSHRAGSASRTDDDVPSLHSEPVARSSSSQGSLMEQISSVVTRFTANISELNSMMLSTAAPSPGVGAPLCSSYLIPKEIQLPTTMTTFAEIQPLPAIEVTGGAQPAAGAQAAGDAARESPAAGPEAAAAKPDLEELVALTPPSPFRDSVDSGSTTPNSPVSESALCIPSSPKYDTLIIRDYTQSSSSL

Target: Metabotropic glutamate receptor 5 (Homo sapiens, UniProt P41594)
Experiment: Tested in vitro binding affinity for displacement of [3H]M-MPEP from membrane of L(-tk) cells expressing the Metabotropic glutamate receptor 5, activity expressed as IC50

Cc1cccc(C#Cc2ccccc2)n1
IC50: 20 nM
